Experimental findings from patent publication US20260007651A1, “Effect of YEL002 on Conditions and Diseases” (RadMit, Inc., priority 2022, published 2026) are described below.

The subject of this test is cells. Description: Resistance of cells to exposure to a variety of agents. As to conditions: UV, chemical carcinogens, chemical warfare agents, radioactive iodine and cigarette smoke.

Each structure is given as a SMILES string.

For `COc1ccc2cc(-c3nc4ccc(C)cn4c3NCc3ccco3)c(=O)[nH]c2c1` [YEL002], the “resistance of cells to agents” value is given as “more resistant”.
